Values of other authors, collected in paper PMC4815068, “A phase I study of high-dose rosuvastatin with standard dose erlotinib in patients with advanced solid malignancies” (Journal of Translational Medicine, 2016).

Legend:
[1] = test system: patients with solid tumors; details: 1-week of consecutive dosing, 3-week break every 28-day cycle, n = 88; cited from earlier work
[2] = test system: SCC, NSCLC and colon cancer cell lines; details: concentrations between 1 and 10 μM; cited from earlier work
[3] = test system: recurrent SCC patients; details: × 21 days in a 28-day cycle, recurrent SCC n = 26; cited from earlier work

SMILES: CC[C@H](C)C(=O)O[C@H]1C[C@@H](C)C=C2C=C[C@H](C)[C@H](CC[C@@H]3C[C@@H](O)CC(=O)O3)[C@H]21 [lovastatin]
- MTD of lovastatin monotherapy [1]: 25 mg/kg/day
- Cytotoxicity of combination treatment with lovastatin and EGFR-TKIs [2]: synergistic cytotoxicity
- MTD of lovastatin [3]: 7.5 mg/kg/day
